Test results: patent US5935805A, “Measurement of bilirubin albumin binding” (Research Corporation Technologies, Inc., priority 1997, dated 1999)

Details: freeze dried HRP reconstituted with water to 100 μg/mL

Question: For horseradish peroxidase, which “Time Kp remains unchanged after reconstitution” value is on record?
Answer: up to four
